Patent EP4834897A1, “COMPOUNDS WITH TWO AZAHETEROCYCLES SUBSTITUTED ISOINDOLINONE SKELETON AND USES THEREOF” (dated 2026)

By UniProt entry, the sequences of proteins in these tests, tags left out.
UniProt Q96SW2, whole entry: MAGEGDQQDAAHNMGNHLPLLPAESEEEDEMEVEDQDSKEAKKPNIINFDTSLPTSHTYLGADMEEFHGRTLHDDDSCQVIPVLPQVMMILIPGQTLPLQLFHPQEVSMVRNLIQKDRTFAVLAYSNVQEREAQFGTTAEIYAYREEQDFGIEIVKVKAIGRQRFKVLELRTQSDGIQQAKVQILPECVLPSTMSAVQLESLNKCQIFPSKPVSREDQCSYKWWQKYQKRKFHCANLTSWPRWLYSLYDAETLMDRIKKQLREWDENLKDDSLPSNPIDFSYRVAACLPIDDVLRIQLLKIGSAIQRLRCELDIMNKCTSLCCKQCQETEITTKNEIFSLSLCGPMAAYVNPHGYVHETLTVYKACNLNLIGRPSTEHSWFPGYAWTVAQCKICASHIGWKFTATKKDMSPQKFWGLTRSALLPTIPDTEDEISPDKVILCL
UniProt P48729, whole entry: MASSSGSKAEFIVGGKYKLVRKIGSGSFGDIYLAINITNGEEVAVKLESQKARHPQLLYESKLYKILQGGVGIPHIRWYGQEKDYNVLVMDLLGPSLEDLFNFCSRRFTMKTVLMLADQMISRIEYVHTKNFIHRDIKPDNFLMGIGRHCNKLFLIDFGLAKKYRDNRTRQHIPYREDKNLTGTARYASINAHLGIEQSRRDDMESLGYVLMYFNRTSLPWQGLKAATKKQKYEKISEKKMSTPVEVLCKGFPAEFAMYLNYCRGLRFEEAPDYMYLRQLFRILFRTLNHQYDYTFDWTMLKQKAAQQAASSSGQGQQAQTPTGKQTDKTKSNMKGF
UniProt P15170, whole entry: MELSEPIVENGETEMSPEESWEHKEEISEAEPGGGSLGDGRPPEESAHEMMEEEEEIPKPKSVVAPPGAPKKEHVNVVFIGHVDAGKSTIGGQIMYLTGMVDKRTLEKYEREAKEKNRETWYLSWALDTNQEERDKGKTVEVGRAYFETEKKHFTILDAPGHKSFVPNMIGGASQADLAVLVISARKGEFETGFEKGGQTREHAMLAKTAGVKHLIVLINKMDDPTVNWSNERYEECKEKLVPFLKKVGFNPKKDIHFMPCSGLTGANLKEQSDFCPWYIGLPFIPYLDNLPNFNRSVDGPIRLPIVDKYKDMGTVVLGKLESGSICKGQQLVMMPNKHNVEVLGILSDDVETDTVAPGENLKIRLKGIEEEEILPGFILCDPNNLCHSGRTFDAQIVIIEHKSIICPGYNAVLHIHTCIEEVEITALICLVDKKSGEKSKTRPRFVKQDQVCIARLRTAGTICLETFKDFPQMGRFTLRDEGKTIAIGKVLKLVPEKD
UniProt Q13422, whole entry: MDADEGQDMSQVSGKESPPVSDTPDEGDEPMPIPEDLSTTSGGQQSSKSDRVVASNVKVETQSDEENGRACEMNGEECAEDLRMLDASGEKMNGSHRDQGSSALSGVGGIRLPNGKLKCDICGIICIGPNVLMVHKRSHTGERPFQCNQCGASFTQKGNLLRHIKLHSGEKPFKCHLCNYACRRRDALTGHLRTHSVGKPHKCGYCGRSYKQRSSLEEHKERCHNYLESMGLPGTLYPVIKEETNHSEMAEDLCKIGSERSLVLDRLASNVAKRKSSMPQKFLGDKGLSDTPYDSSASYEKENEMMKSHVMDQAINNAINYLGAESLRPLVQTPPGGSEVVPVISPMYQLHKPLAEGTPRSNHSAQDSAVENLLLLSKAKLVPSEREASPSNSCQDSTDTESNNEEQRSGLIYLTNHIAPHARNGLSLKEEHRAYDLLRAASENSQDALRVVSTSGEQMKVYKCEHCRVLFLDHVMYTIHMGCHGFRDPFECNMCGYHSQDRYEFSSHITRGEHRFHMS
UniProt Q9UKS7, whole entry: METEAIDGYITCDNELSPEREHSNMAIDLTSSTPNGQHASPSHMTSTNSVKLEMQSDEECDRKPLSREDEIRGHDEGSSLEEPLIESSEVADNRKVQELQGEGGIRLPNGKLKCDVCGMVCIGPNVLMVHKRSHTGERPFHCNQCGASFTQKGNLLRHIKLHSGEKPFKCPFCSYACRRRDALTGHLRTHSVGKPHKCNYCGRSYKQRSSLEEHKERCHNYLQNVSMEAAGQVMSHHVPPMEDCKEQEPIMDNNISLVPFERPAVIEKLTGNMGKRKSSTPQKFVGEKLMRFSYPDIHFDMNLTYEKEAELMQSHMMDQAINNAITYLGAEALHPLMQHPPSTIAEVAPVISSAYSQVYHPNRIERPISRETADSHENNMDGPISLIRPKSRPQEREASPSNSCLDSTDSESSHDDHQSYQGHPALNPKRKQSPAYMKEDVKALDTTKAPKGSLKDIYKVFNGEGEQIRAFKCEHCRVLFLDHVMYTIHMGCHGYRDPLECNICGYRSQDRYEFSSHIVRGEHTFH
UniProt Q9UKT9, whole entry: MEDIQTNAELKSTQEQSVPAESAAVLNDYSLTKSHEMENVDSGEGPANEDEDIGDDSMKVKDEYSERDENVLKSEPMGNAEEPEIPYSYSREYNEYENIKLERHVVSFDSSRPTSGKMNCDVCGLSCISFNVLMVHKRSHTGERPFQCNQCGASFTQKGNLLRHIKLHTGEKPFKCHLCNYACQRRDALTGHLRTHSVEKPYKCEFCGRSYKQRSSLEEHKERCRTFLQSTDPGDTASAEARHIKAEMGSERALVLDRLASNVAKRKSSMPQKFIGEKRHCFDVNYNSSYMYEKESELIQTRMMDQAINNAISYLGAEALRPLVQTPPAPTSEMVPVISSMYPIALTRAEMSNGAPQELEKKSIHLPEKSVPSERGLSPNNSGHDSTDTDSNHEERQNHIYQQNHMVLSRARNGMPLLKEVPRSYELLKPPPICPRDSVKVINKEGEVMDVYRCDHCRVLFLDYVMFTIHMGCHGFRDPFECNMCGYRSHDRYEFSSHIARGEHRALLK
UniProt P30291, whole entry: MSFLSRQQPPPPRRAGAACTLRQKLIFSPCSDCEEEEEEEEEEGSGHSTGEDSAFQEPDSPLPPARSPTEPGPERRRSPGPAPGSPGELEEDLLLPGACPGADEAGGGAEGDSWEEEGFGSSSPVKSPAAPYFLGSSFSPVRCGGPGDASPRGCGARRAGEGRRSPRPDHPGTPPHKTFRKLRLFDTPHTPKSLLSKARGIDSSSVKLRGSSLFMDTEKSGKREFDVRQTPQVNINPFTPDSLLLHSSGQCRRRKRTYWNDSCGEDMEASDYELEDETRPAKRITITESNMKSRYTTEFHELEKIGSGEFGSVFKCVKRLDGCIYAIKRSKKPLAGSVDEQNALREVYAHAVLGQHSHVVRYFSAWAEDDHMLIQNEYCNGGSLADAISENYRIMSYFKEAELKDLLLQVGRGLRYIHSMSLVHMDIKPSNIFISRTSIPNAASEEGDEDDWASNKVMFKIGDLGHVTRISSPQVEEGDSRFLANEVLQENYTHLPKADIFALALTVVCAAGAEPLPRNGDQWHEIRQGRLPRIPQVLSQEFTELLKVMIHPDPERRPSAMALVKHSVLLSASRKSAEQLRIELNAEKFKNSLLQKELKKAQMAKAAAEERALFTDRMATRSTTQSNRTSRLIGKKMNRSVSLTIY
UniProt Q16531, whole entry partner: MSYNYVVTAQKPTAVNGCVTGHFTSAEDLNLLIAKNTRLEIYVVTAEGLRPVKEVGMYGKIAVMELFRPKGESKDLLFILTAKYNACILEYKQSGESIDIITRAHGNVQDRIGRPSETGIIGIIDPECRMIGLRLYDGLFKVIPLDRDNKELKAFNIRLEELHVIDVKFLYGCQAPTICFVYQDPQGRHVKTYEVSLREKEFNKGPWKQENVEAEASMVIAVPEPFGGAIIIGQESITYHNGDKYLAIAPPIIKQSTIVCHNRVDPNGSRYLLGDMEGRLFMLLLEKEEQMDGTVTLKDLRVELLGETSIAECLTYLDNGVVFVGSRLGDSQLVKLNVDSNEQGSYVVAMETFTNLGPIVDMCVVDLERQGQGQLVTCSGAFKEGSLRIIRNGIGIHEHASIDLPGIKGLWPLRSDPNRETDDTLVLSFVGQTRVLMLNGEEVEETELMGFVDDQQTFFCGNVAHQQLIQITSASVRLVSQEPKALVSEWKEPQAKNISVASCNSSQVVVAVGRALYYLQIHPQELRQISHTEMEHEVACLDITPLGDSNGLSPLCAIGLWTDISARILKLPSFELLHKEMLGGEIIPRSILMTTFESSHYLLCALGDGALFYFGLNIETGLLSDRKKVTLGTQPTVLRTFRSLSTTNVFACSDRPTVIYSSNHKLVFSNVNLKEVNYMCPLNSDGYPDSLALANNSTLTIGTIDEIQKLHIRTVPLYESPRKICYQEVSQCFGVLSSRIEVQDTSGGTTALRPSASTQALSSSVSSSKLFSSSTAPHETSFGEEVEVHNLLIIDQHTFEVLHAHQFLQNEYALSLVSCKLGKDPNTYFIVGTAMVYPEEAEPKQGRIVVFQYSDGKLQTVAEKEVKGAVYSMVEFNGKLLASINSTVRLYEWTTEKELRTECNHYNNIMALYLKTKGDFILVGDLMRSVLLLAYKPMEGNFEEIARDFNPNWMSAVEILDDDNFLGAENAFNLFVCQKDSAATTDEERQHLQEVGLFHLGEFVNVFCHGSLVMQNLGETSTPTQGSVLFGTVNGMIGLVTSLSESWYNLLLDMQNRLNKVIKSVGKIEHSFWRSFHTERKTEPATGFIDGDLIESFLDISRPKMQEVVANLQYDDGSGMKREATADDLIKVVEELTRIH

Legend:
CRBN = CRBN (Homo sapiens, UniProt Q96SW2); assay: CRBN binding affinity by HTRF (CEREBLON BINDING kit); conditions: for Inhibition Rate at 0.5 µM (%) / Inhibition Rate at 2 µM (%): CRBN binding, HTRF; for Inhibition Rate at 0.5 µM (%): compound at 0.5 µM; for Inhibition Rate at 2 µM (%): compound at 2 µM
CK1α = CK1α (Homo sapiens, UniProt P48729+Q96SW2); assay: Western blot assay of substrate protein degradation in hPBMCs; conditions: 24 hours treatment, compounds at 50 nM and 500 nM (concentration behind the class not stated)
GSPT1 = GSPT1 (Homo sapiens, UniProt P15170+Q96SW2); assay: as above; conditions: 24 hours treatment, compounds at 50 nM and 500 nM (concentration behind the class not stated)
IKZF1 = IKZF1 (Homo sapiens, UniProt Q13422+Q96SW2); assay: as above; conditions: 24 hours treatment, compounds at 50 nM and 500 nM (concentration behind the class not stated)
IKZF2 = IKZF2 (Homo sapiens, UniProt Q96SW2+Q9UKS7); assay: as above; conditions: 24 hours treatment, compounds at 50 nM and 500 nM (concentration behind the class not stated)
IKZF3 = IKZF3 (Homo sapiens, UniProt Q96SW2+Q9UKT9); assay: as above; conditions: 24 hours treatment, compounds at 50 nM and 500 nM (concentration behind the class not stated)
WEE1 = WEE1 (Homo sapiens, UniProt P30291+Q96SW2); assay: as above; conditions: 24 hours treatment, compounds at 50 nM and 500 nM (concentration behind the class not stated)

SMILES | Inhibition Rate at 0.5 µM (%) (CRBN) | Inhibition Rate at 2 µM (%) (CRBN) | substrate protein remaining % (CK1a) (CK1α) | substrate protein remaining % (GSPT1) (GSPT1) | substrate protein remaining % (IKZF 1) (IKZF1) | substrate protein remaining % (IKZF2) (IKZF2) | substrate protein remaining % (IKZF3) (IKZF3) | substrate protein remaining % (WEE1) (WEE1) | IC50 (CRBN; read-out: HTRF IC50, human Cereblon WT GST-tagged protein, 3 hours at room temperature)
O=C1CCC(N2Cc3cccc(CN4CCC(N5CCN(c6cccc(Cl)c6Cl)CC5)C(F)(F)C4)c3C2=O)C(=O)N1 (centres unmarked) | a2 (20% < a2 ≤ 30%) | a5 (53% < a5 ≤ 60%) | A (0% ≤ substrate protein remaining % ≤ 80%) | A (0% ≤ substrate protein remaining % ≤ 80%) | A (0% ≤ substrate protein remaining % ≤ 80%) | B (80%< substrate protein remaining %≤ 100%) | B (80%< substrate protein remaining %≤ 100%) | A (0% ≤ substrate protein remaining % ≤ 80%) | –
CC1(C)CCC(C(=O)N2CCN(C3CCN(Cc4cccc5c4C(=O)N(C4CCC(=O)NC4=O)C5=O)CC3(F)F)CC2)=C(c2ccc(Cl)cc2)C1 (centres unmarked) | a1 (10% < a1 ≤ 20%) | a5 (53% < a5 ≤ 60%) | A (0% ≤ substrate protein remaining % ≤ 80%) | A (0% ≤ substrate protein remaining % ≤ 80%) | B (80%< substrate protein remaining %≤ 100%) | A (0% ≤ substrate protein remaining % ≤ 80%) | A (0% ≤ substrate protein remaining % ≤ 80%) | A (0% ≤ substrate protein remaining % ≤ 80%) | –
O=C1CCC(N2Cc3ccc(CN4CCC(N5CCN(c6noc7cc(F)ccc67)CC5)CC4)cc3C2=S)C(=O)N1 (centres unmarked) | a2 (20% < a2 ≤ 30%) | a6 (60% < a6 ≤ 70%) | A (0% ≤ substrate protein remaining % ≤ 80%) | A (0% ≤ substrate protein remaining % ≤ 80%) | B (80%< substrate protein remaining %≤ 100%) | B (80%< substrate protein remaining %≤ 100%) | B (80%< substrate protein remaining %≤ 100%) | B (80%< substrate protein remaining %≤ 100%) | –
O=C1CCC(N2Cc3cc(CN4CCC(N5CCN(c6noc7cc(F)ccc67)CC5)CC4)c(F)cc3C2=O)C(=O)N1 (centres unmarked) | a4 (40% < a4 ≤ 53%) | a6 (60% < a6 ≤ 70%) | B (80%< substrate protein remaining %≤ 100%) | B (80%< substrate protein remaining %≤ 100%) | B (80%< substrate protein remaining %≤ 100%) | B (80%< substrate protein remaining %≤ 100%) | B (80%< substrate protein remaining %≤ 100%) | A (0% ≤ substrate protein remaining % ≤ 80%) | –
O=C1CCC(N2Cc3ccc(CN4CCC(N5CCN(c6cccc(Cl)c6Cl)CC5)C(F)(F)C4)cc3C2=S)C(=O)N1 (centres unmarked) | a3 (30% < a3 ≤ 40%) | a6 (60% < a6 ≤ 70%) | B (80%< substrate protein remaining %≤ 100%) | B (80%< substrate protein remaining %≤ 100%) | B (80%< substrate protein remaining %≤ 100%) | A (0% ≤ substrate protein remaining % ≤ 80%) | B (80%< substrate protein remaining %≤ 100%) | B (80%< substrate protein remaining %≤ 100%) | –
O=C1CCC(N2Cc3cc(CN4CCC(N5CCN(C(c6ccccc6)c6ccccc6)CC5)CC4)ccc3C2=S)C(=O)N1 (centres unmarked) | a6 (60% < a6 ≤ 70%) | a8 (80% < a8 ≤100%) | B (80%< substrate protein remaining %≤ 100%) | A (0% ≤ substrate protein remaining % ≤ 80%) | B (80%< substrate protein remaining %≤ 100%) | B (80%< substrate protein remaining %≤ 100%) | B (80%< substrate protein remaining %≤ 100%) | B (80%< substrate protein remaining %≤ 100%) | –
O=C1CCC(N2Cc3cc(CN4CCC(N5CCC(c6noc7cc(F)ccc67)CC5)C(F)(F)C4)ccc3C2=S)C(=O)N1 (centres unmarked) | a5 (53% < a5 ≤ 60%) | a8 (80% < a8 ≤100%) | B (80%< substrate protein remaining %≤ 100%) | B (80%< substrate protein remaining %≤ 100%) | B (80%< substrate protein remaining %≤ 100%) | B (80%< substrate protein remaining %≤ 100%) | A (0% ≤ substrate protein remaining % ≤ 80%) | A (0% ≤ substrate protein remaining % ≤ 80%) | –
O=C1CCC(N2Cc3cc(C(=O)N4CCC(N5CCC(c6noc7cc(F)ccc67)CC5)C(F)(F)C4)ccc3C2=O)C(=O)N1 (centres unmarked) | a6 (60% < a6 ≤ 70%) | a8 (80% < a8 ≤100%) | B (80%< substrate protein remaining %≤ 100%) | B (80%< substrate protein remaining %≤ 100%) | B (80%< substrate protein remaining %≤ 100%) | B (80%< substrate protein remaining %≤ 100%) | B (80%< substrate protein remaining %≤ 100%) | A (0% ≤ substrate protein remaining % ≤ 80%) | –
CC1(C)CCC(C(=O)N2CCN(C3CCN(C(=O)c4cccc5c4CN(C4CCC(=O)NC4=O)C5=O)CC3(F)F)CC2)=C(c2ccc(Cl)cc2)C1 (centres unmarked) | a7 (70% < a7 ≤80%) | a8 (80% < a8 ≤100%) | B (80%< substrate protein remaining %≤ 100%) | A (0% ≤ substrate protein remaining % ≤ 80%) | B (80%< substrate protein remaining %≤ 100%) | B (80%< substrate protein remaining %≤ 100%) | B (80%< substrate protein remaining %≤ 100%) | B (80%< substrate protein remaining %≤ 100%) | –
O=C1CCC(N2Cc3cc(CN4CCC(N5CCN(c6cccc(Cl)c6Cl)CC5)C(F)(F)C4)cc(F)c3C2=O)C(=O)N1 (centres unmarked) | a4 (40% < a4 ≤ 53%) | a7 (70% < a7 ≤80%) | B (80%< substrate protein remaining %≤ 100%) | A (0% ≤ substrate protein remaining % ≤ 80%) | B (80%< substrate protein remaining %≤ 100%) | B (80%< substrate protein remaining %≤ 100%) | B (80%< substrate protein remaining %≤ 100%) | B (80%< substrate protein remaining %≤ 100%) | –
CC1(C)CCC(C(=O)N2CCN(C3CCN(Cc4cccc5c4CN(C4CCC(=O)NC4=O)C5=S)CC3(F)F)CC2)=C(c2ccc(Cl)cc2)C1 (centres unmarked) | a5 (53% < a5 ≤ 60%) | a8 (80% < a8 ≤100%) | B (80%< substrate protein remaining %≤ 100%) | A (0% ≤ substrate protein remaining % ≤ 80%) | B (80%< substrate protein remaining %≤ 100%) | B (80%< substrate protein remaining %≤ 100%) | A (0% ≤ substrate protein remaining % ≤ 80%) | B (80%< substrate protein remaining %≤ 100%) | –
O=C1CCC(N2Cc3cc(CN4CCC(N5CCN(c6cccc(Cl)c6Cl)CC5)CC4)cc(F)c3C2=O)C(=O)N1 (centres unmarked) | – | – | B (80%< substrate protein remaining %≤ 100%) | A (0% ≤ substrate protein remaining % ≤ 80%) | A (0% ≤ substrate protein remaining % ≤ 80%) | A (0% ≤ substrate protein remaining % ≤ 80%) | B (80%< substrate protein remaining %≤ 100%) | B (80%< substrate protein remaining %≤ 100%) | 500 to 1000 nM
